Data on 4 substances can be found in patent US11576873B2, “Compositions for the treatment of drug-resistant tumors and methods of use thereof” (THE CURATORS OF THE UNIVERSITY OF MISSOURI, priority 2017, dated 2023).

In one series the test system is H820 and HCC827. Put plainly: 72 h cell viability analysis of Cetuximab antibody. The note with it: H820 versus HCC827. In kind it is cell-based. The protocol: FIG. 41A-C. FIG. 41A, 41B, and 42C show 72 h cell viability analysis of: (A) DMSO and Transit-X2 in H820, (B) Cetuximab antibody in H820 and HCC827, and (C) siRNA in H820.
Drug treatment and pathway inhibition were combined and the effect of drug resensitization in cells was determined. The required concentration of DMSO and transfection agent needed for drug and siRNA treatments was first optimized by testing their toxicity in H820 cells (FIG. 41). Additionally, cells were checked for sensitivity to anti-EGFR antibody (Cetuximab). […] Next it was established that siRNA alone had no effect on multiple cell lines (FIG. 41).

Series [1] can be described thus: Physicochemical properties of gelatin NP constructs (TEM, DLS size, zeta potential).
For the next series, the system named is FN14. Put plainly: Protein analysis of mice tumor tissues, FN14. In kind it is in vivo. The note with it: A549 xenograft, with erlotinib, compared to controls. The protocol: (§1) To confirm the downregulation of AXL-FN14 in tumors, protein analysis was performed on the tumor tissues.
The test system of series [2] is luciferase expressing A549 xenograft tumors. The experiment in a line: Tumor size by fluorescence imaging in mice with A549 xenografts. The class given is in vivo. The note with it: injected intraperitoneally, along with erlotinib, third treatment day, compared to nanoparticle devoid of siRNA. The protocol:
FIG. 49A-D. FIG. 49A, 49B, 49C, and 49D show (A,C) Total fluorescence measured from tumors and (B,D) mean fluorescence measured from tumors. IT/IP/IV+ER represent dual-siRNA construct treatments. Results were averaged from 5 mice. *p≤0.05, and the normalized percentage differences between day 17 and day 20 values were analyzed using one-way anova.
In order to translate the in vitro findings to an in vivo model, mice were treated with luciferase expressing A549 xenograft tumors with our siRNA-conjugated constructs. Both AXL and FN14 were synergistically targeted using a single construct along with erlotinib and monitored tumor volume reduction by fluorescence imaging (FIG. 48).

The next series has as its system AXL. Put plainly: Protein analysis of mice tumor tissues, AXL. The class given is in vivo. The conditions noted are these: A549 xenograft, with erlotinib, compared to controls. The protocol:
as §1

Take “Cetuximab: FDA approved anti-EGFR antibody”: in the series with H820 and HCC827, the “sensitivity to anti-EGFR antibody” value is listed as “more resistant”.

For the substance “GAb: gelatin nanoparticles conjugated with Cetuximab (anti-EGFR antibody)”, the “Zeta (mV)” value in series [1] was −9 mV.

As to “GAbsi(AXL,FN14): Cetuximab conjugated gelatin nanoparticles reacted with equal amounts of AXL and FN14 siRNA”, in the series on FN14, the “FN14 expression in tumor tissues” value was “downregulated”. Besides, the “reduction of tumor size” value in series [2] is 50%. The “AXL expression in tumor tissues” value in the series with AXL was “downregulated”.

Regarding “GAbsiAXL: Cetuximab conjugated gelatin nanoparticles with thiol modified AXL siRNA linked via SMCC”, in series [1], the “Zeta (mV)” value is reported as −28 mV.
